From PubChem BioAssay
Compounds with a hit are over-represented: about 16% of the library has one in this group of screens.
uPA surface inh – blocks generation of uPA at the cell surface; cell surface uPA generation assay, qHTS; Potency, µM (top dose mostly 38.3 µM), usual class: inhibitors; actives 0.31% (n = 330,000); active means well fitted inhibition curve with a large enough effect; inconclusive means small, poorly fitted or top-dose-only effect; inactive means no such curve, though single readings can be large or run the other way; tested in mouse RAW 264.7 cells; further: nearly all actives have a fitted effect of over 55% in size
TDP1 cell noCPT – qHTS for Inhibitors of human tyrosyl-DNA phosphodiesterase 1 (TDP1): qHTS in cells in absence of CPT; DT40 Tdp1-/- hTDP1 cells, no CPT, ATP luminescence, 48 h; Potency, µM (series often up to 46.2 µM), most hits filed as inhibitors; actives 15% (n = 420,000); further: nearly all actives have a fitted effect of over 55% in size
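Camptothecin absent (DMSO only). Human TDP1-complemented DT40 knockout cells, 400 cells/well, 37 °C for minimum 48 hr; ATP measured via CellTiter-Glo, 30 min dark incubation, luminescence.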
miR-21 FLuc – miR-21 reporter, rising signal | AID 2288 | HeLa miR-21 FLuc reporter, luciferase, 48 h | 340,000 tested, under 10 active | Potency, µM (titrated, usually from 38.3 µM); active = well fitted rising curve with a large enough effect; inconclusive = small, poorly fitted or top-dose-only effect; inactive = no such curve, though single readings can be large or run the other way;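 also: miR-21 action dims this reporter so a rising signal means less miR-21 action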
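HeLa miR-21-FLuc reporter line, endogenous miR-21; 2000 cells/well in DMEM/10% FBS; compound titration up to ~40uM final, 48 h, 37 degree Celsius; luciferase detection reagent, 15 min lysis, CCD luminescence.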
DT40 TDP1 CPT – DT40-hTDP1 cell growth loss with CPT; chicken DT40 Tdp1-/-;hTDP1 cells + 20 nM CPT, ATP luminescence, 48 h; Potency, µM (doses to about 46.2 µM), most hits filed as inhibitors; actives 12% (n = 420,000); AID 686979; further: nearly all actives have a fitted effect of over 55% in size
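Chicken DT40 Tdp1-/- cells complemented with human TDP1, 400 cells/well, exposed to compounds plus 20 nM camptothecin for at least 48 h at 37 C; viability read as ATP content by CellTiter-Glo luminescence.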
TDP1 inh – blocks human tyrosyl-DNA phosphodiesterase 1 | Q9NUW8 | recombinant TDP1, AlphaScreen DNA substrate cleavage | Potency, µM (doses to about 130 µM), usual class: inhibitors | actives 0.28% (n = 350,000) | AID 485290; further: nearly all actives have a fitted effect of over 40% in size
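Tdp1 1 nM final; 15 min RT w/ cpd; substrate 15 nM, 5 min; beads 10 ug/ml, 10 min; AlphaScreen read. Neg ctrl: no enzyme.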
Each line names hits and unclear results; the compound was inactive in the other large screens. Unless noted, the call rests on the fitted dose curve; in most records, active means well fitted curve in the direction sought with a large enough effect; inconclusive means small, poorly fitted or top-dose-only effect, or another doubt; inactive means no such curve, though single readings can be large; an effect the other way counts as inactive or inconclusive.

CC(Oc1ccc(Cl)cc1)C(=O)Nc1sccc1C(N)=O (stereo not drawn)	TDP1 cell noCPT 16µM, DT40 TDP1 CPT inconclusive
CCOc1cc(/C=C2\N=C(SC)SC2=O)cc([N+](=O)[O-])c1OC(C)=O	TDP1 cell noCPT inconclusive, DT40 TDP1 CPT 18µM
CCOc1cc(/C=C2\N=C(SCC)SC2=O)cc([N+](=O)[O-])c1OC(C)=O	TDP1 cell noCPT inconclusive, DT40 TDP1 CPT inconclusive
CC1=CC(=O)C=C(C)C1=NOC(=O)c1cccc([N+](=O)[O-])c1	TDP1 cell noCPT inconclusive, DT40 TDP1 CPT 10µM
Cc1cccc(C(=O)O/N=C(\N)c2cccc([N+](=O)[O-])c2)c1	none (no result: uPA surface inh)
C=C[C@@]1(C)CC(=O)[C@]2(O)[C@@]3(C)[C@@H](O)CCC(C)(C)[C@@H]3[C@H](OC(C)=O)[C@H](O)[C@@]2(C)O1	none (no result: miR-21 FLuc, TDP1 inh)
C=C1C(=O)O[C@H]2C[C@]3(C)C([C@@H](OC(=O)/C(C)=C/C)[C@H]12)[C@](C)(O)CC[C@H]3O (stereo partly drawn)	uPA surface inh inconclusive, TDP1 cell noCPT 8.2µM, DT40 TDP1 CPT 15µM (no result: TDP1 inh)
CCn1c(=O)cc(OCC(=O)NCCc2cccc(C)c2)c2ccccc21	TDP1 cell noCPT inconclusive, DT40 TDP1 CPT inconclusive
CCOCCCNC(=O)c1cc(=O)n(Cc2cccc(C)c2)c2ccccc12	TDP1 cell noCPT 21µM, DT40 TDP1 CPT inconclusive
COc1ccc(C(N)=O)cc1NC(=O)CC(O)(C(F)(F)F)C(F)(F)F	TDP1 cell noCPT inconclusive, DT40 TDP1 CPT 15µM
CCOc1ccccc1NC(=O)CC(O)(C(F)(F)F)C(F)(F)F	none
Cc1ccc(C)c(N2N=C(C(=O)N(CC(C)C)c3c(N)n(Cc4ccccc4)c(=O)[nH]c3=O)CCC2=O)c1	none
COc1ccc(CCC(=O)NCc2nc3cccnc3n2Cc2cccc(OC)c2)cc1	TDP1 cell noCPT inconclusive, DT40 TDP1 CPT inconclusive (no result: uPA surface inh)
O=C(/C=C/c1cccc(F)c1)N1CCc2ccccc21	TDP1 cell noCPT inconclusive
COCCCNC(=O)C[C@@H]1C[C@@]2(C(=O)OC)CC(C)(C)CC=C2N(Cc2ccc3c(c2)OCO3)C1=O	TDP1 cell noCPT inconclusive (no result: uPA surface inh, miR-21 FLuc, TDP1 inh)
COC(=O)[C@@]12C[C@@H](CC(=O)NCc3ccc(OC)c(OC)c3)C(=O)N(Cc3ccc4c(c3)OCO4)C1=CCC(C)(C)C2	TDP1 cell noCPT 26µM, DT40 TDP1 CPT 15µM (no result: uPA surface inh, miR-21 FLuc, TDP1 inh)
COC(=O)[C@@]12C[C@@H](CC(=O)NCc3cccc(C(F)(F)F)c3)C(=O)N(Cc3ccc4c(c3)OCO4)C1=CCC(C)(C)C2	TDP1 cell noCPT 18µM, DT40 TDP1 CPT inconclusive (no result: uPA surface inh, miR-21 FLuc, TDP1 inh)
Cc1noc(C)c1NC(=O)N(C)C[C@H]1Oc2c(cccc2N(C)C)C(=O)N([C@H](C)CO)C[C@@H]1C	none (no result: miR-21 FLuc, TDP1 inh)
CCC1CSC(Nc2ccc(C(=O)/C=C/c3cccc(C)c3)cc2)=N1 (stereo not drawn)	uPA surface inh inconclusive, TDP1 cell noCPT 15µM, DT40 TDP1 CPT 16µM
CCC1CSC(Nc2ccc(C(=O)/C=C/c3ccc(Oc4ccccc4)cc3)cc2)=N1 (stereo not drawn)	TDP1 cell noCPT 16µM, DT40 TDP1 CPT 23µM
CC(=O)c1ccc(NC(=O)/C=C/c2ccc(C)cc2)cc1	none
O=c1[nH]c(CSc2nnc(-c3cccnc3)n2C2CCCCC2)nc2ccccc12	TDP1 cell noCPT inconclusive, DT40 TDP1 CPT inconclusive
CN1\C(=C/C=C/C=C/C=[N+](C)C)C(C)(C)c2ccccc21	uPA surface inh inconclusive, TDP1 cell noCPT 2.3µM, DT40 TDP1 CPT 2.6µM
CN(C)c1ccc(N=C/C=C2\N(C)c3ccccc3C2(C)C)cc1	TDP1 cell noCPT 4.1µM, DT40 TDP1 CPT 5.2µM
CN1/C(=C\C=Nc2ccc3ccccc3c2)C(C)(C)c2ccccc21	none (no result: uPA surface inh, TDP1 cell noCPT, DT40 TDP1 CPT)
Cc1cc(/N=C/C=C2\N(C)c3ccccc3C2(C)C)n(CCC#N)n1	uPA surface inh inconclusive, TDP1 cell noCPT 4.6µM, DT40 TDP1 CPT 5.8µM
CN1/C(=C/C=C(C#N)C#N)C(C)(C)c2ccccc21	none
CC(C)Nc1nc(Oc2ccc(Cl)cc2)cc(C(F)(F)F)n1	none
CCc1ccc2c(Cl)c(C(=O)N/N=C/c3c[nH]c4ccccc34)sc2c1	TDP1 cell noCPT inconclusive, DT40 TDP1 CPT 21µM
O=C(N/N=C/c1cccc([N+](=O)[O-])c1)c1cc(-c2ccc3c(c2)OCO3)n[nH]1	none (no result: TDP1 inh)
CCc1ccc(-c2cc(C(=O)N/N=C/c3c[nH]c4ccccc34)[nH]n2)cc1	TDP1 cell noCPT 6.5µM, DT40 TDP1 CPT 16µM
CCc1ccc(/C=N/NC(=O)c2cc(-c3cccc([N+](=O)[O-])c3)n[nH]2)cc1	TDP1 cell noCPT 2.9µM, DT40 TDP1 CPT 3.7µM (no result: TDP1 inh)
O=C(N/N=C/c1ccc[nH]1)c1sc2ccccc2c1Cl	TDP1 cell noCPT 13µM, DT40 TDP1 CPT 13µM
CSc1ccc(CCNC(=O)CN2C(=O)c3cccnc3Oc3ccc(Cl)cc32)cc1	TDP1 cell noCPT inconclusive, DT40 TDP1 CPT inconclusive (no result: uPA surface inh)
O=C(CN1C(=O)c2cccnc2Oc2ccc(Cl)cc21)Nc1ccccc1F	TDP1 cell noCPT 18µM, DT40 TDP1 CPT inconclusive (no result: TDP1 inh)
CC(NC(=O)CN1C(=O)c2cccnc2Oc2ccc(Cl)cc21)c1ccccc1 (stereo not drawn)	TDP1 cell noCPT inconclusive, DT40 TDP1 CPT inconclusive (no result: uPA surface inh)
O=C(CN1C(=O)c2cccnc2Oc2ccc(Cl)cc21)Nc1cccc(C(F)(F)F)c1	TDP1 cell noCPT 18µM, DT40 TDP1 CPT inconclusive (no result: uPA surface inh)
O=C(CN1C(=O)c2cccnc2Oc2ccc(Cl)cc21)NCCCc1ccccc1	TDP1 cell noCPT inconclusive, DT40 TDP1 CPT 23µM
O=C(NCCc1ccccc1)c1cc2ncc(Br)cn2n1	none
O=S(=O)(Nc1c(S(=O)(=O)c2ccccc2)c2nc3ccccc3nc2n1C1CCCCC1)c1ccccc1	TDP1 cell noCPT 5.2µM, DT40 TDP1 CPT 9.2µM
O=C(C[C@H]1C/C=C/CC[C@@H](Cc2ccc(F)cc2)C(=O)O[C@@H](c2ccccc2)CNC1=O)NCCO	TDP1 cell noCPT inconclusive, DT40 TDP1 CPT inconclusive (no result: miR-21 FLuc)
O=C1N[C@@H](c2ccccc2)COC(=O)[C@@H](Cc2ccc(F)cc2)CC/C=C/C[C@@H]1CC(=O)N(CCO)Cc1ccccc1	uPA surface inh inconclusive, TDP1 cell noCPT 18µM, DT40 TDP1 CPT 13µM (no result: miR-21 FLuc)
CC(C)(C)OC(=O)C[C@@H]1C/C=C\C[C@H](CC(=O)N(CCO)Cc2ccccc2)C(=O)N[C@@H](c2ccccc2)COC1=O	TDP1 cell noCPT inconclusive, DT40 TDP1 CPT inconclusive (no result: miR-21 FLuc)
O=C(C[C@H]1C/C=C/CC[C@@H](Cc2ccc(F)cc2)C(=O)OC[C@H](c2ccccc2)NC1=O)NCCO	none (no result: miR-21 FLuc)
O=C1N[C@@H](c2ccccc2)COC(=O)[C@@H](Cc2ccc(F)cc2)CC/C=C/C[C@H]1CC(=O)N(CCO)Cc1ccccc1	uPA surface inh inconclusive, TDP1 cell noCPT 9.2µM, DT40 TDP1 CPT 12µM (no result: miR-21 FLuc)
